Legend:
[1] = system: D3 transfected MN9D cells
[2] = system: D4 transfected MN9D cells
[3] = system: D2A444 transfected MN9D cells

## CCCN1CCC[C@@H]2Cc3n[nH]cc3C[C@H]21 [quinpirole]
[1]
  Branch Number per cell (μm): 3.51 ± .34^+ μm
  Neurite Number per Cell (μm): 4.64 ± .26 μm
  Primary Neuritic Length (μm): 54.24 ± 6.69 μm
  Total Neuritic Length (μm): 157.77 ± 13.94^+ μm
  effect on neurite branching and length (in words): increases in neurite branching and neurite length
[2]
  Branch Number per cell (μm): 2.10 ± .29 μm
  Neurite Number per Cell (μm): 4.12 ± .23 μm
  Primary Neuritic Length (μm): 59.82 ± 6.7 μm
  Total Neuritic Length (μm): 140.53 ± 13.56 μm
  effect on neurite branching and extension (in words): small increase in neurite branching and a large increase in neurite extension
[3]
  Branch Number per cell (μm): 2.35 ± .35 μm
  Neurite Number per Cell (μm): 4.72 ± .23 μm
  Primary Neuritic Length (μm): 30.09 ± 2.02 μm
  Total Neuritic Length (μm): 104.48 ± 8.95 μm
  effect on neurite branching and extension (in words): four fold increase in the frequency of branching of neurites with little effect on neurite extension
MN9D cells
  Branch Number per cell (μm): .63 ± .12 μm
  Neurite Number per Cell (μm): 4.25 ± .23 μm
  Primary Neuritic Length (μm): 22.94 ± 2.01 μm
  Total Neuritic Length (μm): 63.29 ± 4.39 μm
  effect on neuritic outgrowth (in words): no increases in neuritic outgrowth with the exception of the neurite number

Source: patent US6486310B1, “Gene encoding the rat dopamine D4 receptor” (Washington University, priority 1993, dated 2002)
